Results reported in patent US6506878B1, “HMTF81 human 7-transmembrane receptor” (Smithkline Beecham Corporation, priority 1997, dated 2003).

Target: T1, HMTMF81 polypeptide (Homo sapiens, UniProt Q9Y271, E167G)
T1 construct: expressed in transfected cells
T1 sequence (Q9Y271 1-337 E167G): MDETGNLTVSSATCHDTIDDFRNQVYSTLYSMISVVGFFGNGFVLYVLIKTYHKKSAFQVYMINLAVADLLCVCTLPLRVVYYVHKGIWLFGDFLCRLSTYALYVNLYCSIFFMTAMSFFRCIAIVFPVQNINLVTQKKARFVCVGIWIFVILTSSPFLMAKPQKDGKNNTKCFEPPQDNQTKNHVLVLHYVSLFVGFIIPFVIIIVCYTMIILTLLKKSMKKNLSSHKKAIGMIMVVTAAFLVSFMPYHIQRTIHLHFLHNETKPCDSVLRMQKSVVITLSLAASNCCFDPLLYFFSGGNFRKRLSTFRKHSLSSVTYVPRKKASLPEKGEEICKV
Experiment: calcium mobilization in a HMTMF81 expressing cell line
Assay type: cell-based
Description: Similarly, HEK 293 cells expressing recombinant receptors are evaluated for the stimulation or inhibition of cAMP production using standard cAMP quantitation assays.

For `CCCCC/C=C/C/C=C/C=C\C=C/[C@@H](SC[C@H](N)C(=O)NCC(=O)O)[C@@H](O)CCCC(=O)O` [LTD4, (5S, 6R)-6-S-cysteinylglycine-5-hydroxy-(7Z, 9Z, 11E, 14E)-eicosatetraenoic acid], the calcium mobilization response was “induce calcium mobilization responses”.
